For the assay, the species on record is Rattus norvegicus. Nature of the assay: Pro-cognitive activity in male Long-Evans rat assessed as reversal of phencyclidine induced disruption of preference for exploration of new arm pretreated for 4 hrs followed by treated with PCP measured after 30 mins by V-maze (visual-spatial working memory task) cognition test. Type of assay: functional, organism-based. The conditions noted are these: dose 0.16-0.63 mg/kg, route po, time 4.5 hrs.

The structures appear in SMILES notation.

Regarding `Cc1cc(-c2cnn3c2C(=O)N(c2ccc(C(F)(F)F)cc2)C[C@@H]3C)ccn1`, the Activity result is “Dose-Dependent Effect”.

The values above are taken from ChEMBL document CHEMBL5584356, “Discovery of 6,7-Dihydropyrazolo[1,5-a]pyrazin-4(5H)-one Derivatives as mGluR2 Negative Allosteric Modulators with In Vivo Activity in a Rodent's Model of Cognition” (J Med Chem, 2024).
